Assay [1] addresses T1, human erythrocyte AChE (hAChE) (Homo sapiens, UniProt P22303).
T1 construct: The human erythrocyte AChE (hAChE, aqueous buffer solution); purchased Sigma Aldrich; host or cells: human erythrocytes
In kind it is biochemical.

Sequences of proteins named here, by UniProt entry; tags and fusion partners are left off. Residues count along the entry.
UniProt P22303, 32-617 isoform P22303-2 limits assumed: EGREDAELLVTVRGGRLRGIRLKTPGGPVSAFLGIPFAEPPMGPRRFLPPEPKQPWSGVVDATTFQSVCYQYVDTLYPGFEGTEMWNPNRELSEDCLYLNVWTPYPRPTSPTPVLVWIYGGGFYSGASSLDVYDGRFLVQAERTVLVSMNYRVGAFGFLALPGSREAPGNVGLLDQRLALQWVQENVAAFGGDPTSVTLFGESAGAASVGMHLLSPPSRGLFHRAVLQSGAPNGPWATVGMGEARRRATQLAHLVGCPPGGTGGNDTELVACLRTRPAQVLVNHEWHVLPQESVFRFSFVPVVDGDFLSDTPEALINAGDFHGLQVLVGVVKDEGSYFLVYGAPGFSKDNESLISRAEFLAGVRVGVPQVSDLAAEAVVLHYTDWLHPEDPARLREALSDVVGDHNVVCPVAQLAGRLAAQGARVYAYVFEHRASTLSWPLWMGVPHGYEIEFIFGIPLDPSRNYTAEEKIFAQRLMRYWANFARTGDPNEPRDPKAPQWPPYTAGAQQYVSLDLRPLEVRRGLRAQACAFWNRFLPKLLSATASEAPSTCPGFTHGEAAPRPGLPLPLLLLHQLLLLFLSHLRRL
UniProt P81908, whole entry: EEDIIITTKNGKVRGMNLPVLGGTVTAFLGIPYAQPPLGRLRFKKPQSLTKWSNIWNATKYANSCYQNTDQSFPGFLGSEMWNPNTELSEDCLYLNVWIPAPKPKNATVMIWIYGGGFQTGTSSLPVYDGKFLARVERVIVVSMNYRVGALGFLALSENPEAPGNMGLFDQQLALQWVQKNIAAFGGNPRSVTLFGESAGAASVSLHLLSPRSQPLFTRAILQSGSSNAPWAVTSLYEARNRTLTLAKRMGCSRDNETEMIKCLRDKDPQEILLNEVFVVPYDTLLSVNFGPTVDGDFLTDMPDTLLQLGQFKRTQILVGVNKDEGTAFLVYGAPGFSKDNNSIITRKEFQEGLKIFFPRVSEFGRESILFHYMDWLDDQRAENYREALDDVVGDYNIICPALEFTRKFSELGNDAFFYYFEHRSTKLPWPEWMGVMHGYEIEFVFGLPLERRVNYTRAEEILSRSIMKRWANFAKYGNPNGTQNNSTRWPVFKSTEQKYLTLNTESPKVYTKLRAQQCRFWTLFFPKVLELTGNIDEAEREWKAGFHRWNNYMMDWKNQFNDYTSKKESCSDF

Assay [2] addresses T2, BuChE from equine serum (eqBuChE) (Equus caballus, UniProt P81908).
T2 construct: The BuChE freeze-dried from equine serum (eqBuChE, Sigma Aldrich); purchased Sigma Aldrich; host or cells: equine serum
It is filed as biochemical.

As for “Tri(4-isopropylbenzoate)phosphate [Compound G]”, in assay [1], the “IC50 hAChE” value is 15.8 µg/mL. Besides, in assay [2], the “IC50 eqBuChE” value was determined as 145.5 µg/mL.

(Values after US11230683B2 (priority 2020, dated 2022).)
